Results on 1 compound are retold here after paper PMC9974466 (Proceedings of the National Academy of Sciences of the …, 2023).

The assay has as its target T1, human PTHR1 (Homo sapiens, UniProt Q03431).
T1 construct: expressed in transfected cells; host or cells: GP2.3 (HEK293-derived)
T1 sequence (Q03431 27-593): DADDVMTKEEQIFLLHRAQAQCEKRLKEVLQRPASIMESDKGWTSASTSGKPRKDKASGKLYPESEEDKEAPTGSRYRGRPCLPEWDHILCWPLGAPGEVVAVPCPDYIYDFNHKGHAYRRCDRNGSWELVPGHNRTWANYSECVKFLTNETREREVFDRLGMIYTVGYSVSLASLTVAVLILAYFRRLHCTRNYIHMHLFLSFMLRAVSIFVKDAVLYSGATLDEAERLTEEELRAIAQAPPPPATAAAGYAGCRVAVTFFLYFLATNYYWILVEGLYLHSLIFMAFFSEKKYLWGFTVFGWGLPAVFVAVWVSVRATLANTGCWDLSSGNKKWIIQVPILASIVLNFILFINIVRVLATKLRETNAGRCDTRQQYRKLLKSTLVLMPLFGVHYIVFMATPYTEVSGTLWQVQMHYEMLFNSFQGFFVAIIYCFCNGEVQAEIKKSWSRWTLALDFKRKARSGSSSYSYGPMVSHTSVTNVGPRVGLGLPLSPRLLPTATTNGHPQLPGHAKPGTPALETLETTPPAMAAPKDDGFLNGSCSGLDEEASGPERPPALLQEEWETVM
The assay can be described thus: PTH-stimulated cAMP formation in GP2.3 reporter cells (Glosensor). Format: cell-based. The following applies: GP2.3 cells; synthetic peptides; mean ± SEM, n = 3; maximum luminescence 20 to 23 min. How it is done: SGS-72 cells, i.e., human osteosarcoma SaOS-2 cells stably expressing the Glosensor cAMP reporter, were maintained in modified McCoy’s 5A medium [15% FBS, 1% penicillin/streptomycin, and 1% nonessential amino acids, as described ([29])]. GP2.3 cells, i.e., HEK293 cells stably expressing the human PTHR1 and the Glosensor cAMP reporter, were maintained in DMEM (10% FBS, 1% penicillin/streptomycin), as described ([24]). Cells were seeded into 96‐well white plates (40,000 cells/100µL/well); 24 to 48 h after confluency, the wells were rinsed with 100 µL carbon dioxide-independent culture medium (CIDB; Life Technologies) containing 0.1% bovine serum albumin (BSA), which was then replaced with 90 µL of luciferin (0.5 mM in CIDB) for 15 min before adding 10 µL of increasing concentrations of PTH analogs diluted in CIDB or 10 µL of CIDB, and then measuring cAMP‐dependent luminescence at 2‐min intervals using a PerkinElmer Envision plate reader (PerkinElmer), as described ([24]). For each well, the maximum luminescence (counts per second, cps) was typically observed 20 to 23 min after ligand addition, which was used to generate ligand dose–response curves, as described ([24]). GP2.3 cells were also used for the evaluation of CM from transfected COS-7 cells; PTH(1-84) served as control.
In general terms: cAMP levels reflect the balance of adenylyl cyclase and phosphodiesterase activity.

The term EC50 denotes the concentration at which the effect is half-maximal. The low end stands for greater potency, the high end for weaker potency.

Compound `CC[C@H](C)[C@H](NC(=O)[C@H](CCC(=O)O)NC(=O)[C@H](CO)NC(=O)[C@@H](NC(=O)[C@@H](N)CO)C(C)C)C(=O)N[C@@H](CCC(N)=O)C(=O)N[C@@H](CC(C)C)C(=O)N[C@@H](CCSC)C(=O)N[C@@H](Cc1cnc[nH]1)C(=O)N[C@@H](CC(N)=O)C(=O)N[C@@H](CC(C)C)C(=O)NCC(=O)N[C@@H](CCCCN)C(=O)N[C@@H](Cc1cnc[nH]1)C(=O)N[C@@H](CC(C)C)C(=O)N[C@@H](CC(N)=O)C(=O)N[C@@H](CO)C(=O)N[C@@H](CCSC)C(=O)N[C@@H](CCC(=O)O)C(=O)N[C@@H](CCCNC(=N)N)C(=O)N[C@H](C(=O)N[C@@H](CCC(=O)O)C(=O)N[C@@H](Cc1c[nH]c2ccccc12)C(=O)N[C@@H](CC(C)C)C(=O)N[C@@H](CCCNC(=N)N)C(=O)N[C@@H](CCCCN)C(=O)N[C@@H](CCCCN)C(=O)N[C@@H](CC(C)C)C(=O)N[C@@H](CCC(N)=O)C(=O)N[C@@H](CC(=O)O)C(=O)N[C@H](C(=O)N[C@@H](Cc1cnc[nH]1)C(=O)N[C@@H](CC(N)=O)C(=O)N[C@@H](Cc1ccccc1)C(N)=O)C(C)C)C(C)C` [[S1]PTH(1-34), reference compound] registered a concentration for a half-maximal effect (EC50) of 3.5 ± 1.4 nM.
